# scFv variants of Ab-95 (light chain) against a SARS-CoV-2 spike peptide

Target: peptide PDVDLGDISGINAS, taken from heptad repeat 2 (HR2) of SARS-CoV-2 spike.

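The starting antibody came from a phage panning campaign against this peptide. The library (AAYL52) carries one to three amino acid substitutions per variant, with no insertions or deletions. The scFvs were displayed on barcoded MATa yeast, the peptide on MATalpha yeast. Mating (16 h, 30 °C) was followed by selection of diploids and sequencing of their barcodes. Scores were corrected for input abundance and mapped to Kd with protein pairs of known affinity run in the same pool. Mating was done three times.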

Parent: Ab-95, a human scFv built as VH, a 15-residue (Gly4Ser)3 linker, VL. Only the CDRs of the light chain vary.
VH: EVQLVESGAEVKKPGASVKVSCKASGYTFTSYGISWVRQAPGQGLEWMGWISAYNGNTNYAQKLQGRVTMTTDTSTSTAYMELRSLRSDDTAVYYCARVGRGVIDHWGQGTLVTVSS
VL: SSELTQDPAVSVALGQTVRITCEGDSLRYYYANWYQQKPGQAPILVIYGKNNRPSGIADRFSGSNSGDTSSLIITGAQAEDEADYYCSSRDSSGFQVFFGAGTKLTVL

The parent's light chain CDRs are EGDSLRYYYAN, GKNNRPS, SSRDSSGFQVF; each variant's own CDRs replace them letter for letter. Scale: log10 of Kd in nM, estimated from mating counts; low values are strong binders. The mean shown is taken over the replicates in which the pair was detected. "n.d." means that the variant was in the library but no mating with the target was seen in that replicate; the authors take this as a sign of poor binding, and no number exists. As a blank, each scFv also met three strains without target: over library AAYL52, 28% of these pairings were detected, typically at 3.91 and seldom below 2.90. For each scFv, signals with the empty controls are counted beside the result, with their mean in brackets.

| # | CDR-L1 | CDR-L2 | CDR-L3 | log10 Kd (nM) by replicate | mean, log10 nM | empty controls |
|---|---|---|---|---|---|---|
| 1 | EGDSKRYYYAN | GKWNRPS | SSRSSSGFQVF | n.d. n.d. n.d. | n.d. | 0/9 |
| 2 | HGDSLRYYYAN | GKNNRPS | LSRVSSGFQVF | 4.36 n.d. 4.66 | 4.51 | 1/9 (3.99) |
| 3 | EGDSLRWYYPN | GKDNRPS | SSRDSSGFQVF | 3.92 3.96 2.86 | 3.58 | 1/9 (3.34) |
| 4 | EGDSLRYYYAN | GKNNRPS | RSRDSEGFQTF | n.d. n.d. n.d. | n.d. | 2/9 (3.98) |
| 5 | HGDSLRYYYAN | GKNTRPS | SSRDSSQFQVF | 4.06 n.d. n.d. | 4.06 | 5/9 (3.99) |
| 6 | EKDSLRYYYAN | GKNERYS | SSRDSSGFQVF | n.d. n.d. 3.58 | 3.58 | 2/9 (3.74) |
| 7 | EGDSLRYYKAN | GKNNRPS | VSRDSSPFQVF | n.d. 3.68 n.d. | 3.68 | 2/9 (4.84) |
| 8 | EGTFLRYYYHN | GKNNRPS | SSRDSSGFQVF | n.d. n.d. n.d. | n.d. | 4/9 (3.59) |
| 9 | EGDSLRYYYSN | GKNNRPS | SSRDSSGFIVF | 4.60 3.42 3.76 | 3.93 | 1/9 (3.40) |
| 10 | LGDSLRSYYAN | GKNNRPS | SSRFSSGFQVF | 3.01 3.05 2.19 | 2.75 | 6/9 (4.50) |
| 11 | EGDSLRYYYCN | GKNNRPS | SSRNSSGFQVT | 5.31 6.29 n.d. | 5.80 | 6/9 (4.38) |
| 12 | ESDSLRYYYAN | GKNRRPS | SSRDSSGFQVF | 2.96 3.08 n.d. | 3.02 | 6/9 (4.48) |
| 13 | EGDSLRYYYAN | GLRNRPS | SSRDSSGCQVF | 3.68 n.d. n.d. | 3.68 | 3/9 (3.47) |
| 14 | EGDSLRPYYAN | GKVNRPS | SSRDSTGFQVF | 3.37 n.d. n.d. | 3.37 | 2/9 (3.57) |
| 15 | EGDSLRYYYAN | GKNNPPS | SSRDSEGFHVF | n.d. n.d. n.d. | n.d. | 1/9 (4.76) |
| 16 | EGDSLRCYYAS | GKNNRFS | SSRDSSGFQVF | n.d. n.d. 3.20 | 3.20 | 3/9 (4.27) |
| 17 | EGDSLKYYYAN | GDNNRPS | SSRDHSGFQVF | 1.30 1.16 0.86 | 1.11 | 3/9 (4.59) |
| 18 | EGDSLLYYYGN | GKNNRPS | SERDSSGFQVF | n.d. 5.35 n.d. | 5.35 | 2/9 (4.57) |
| 19 | EGDSLRDYYAN | GKNNFPN | SSRDSSGFQVF | n.d. 3.92 n.d. | 3.92 | 2/9 (3.91) |
| 20 | EGDSLRYYWGN | NKNNRPS | SSRDSSGFQVF | n.d. n.d. n.d. | n.d. | 3/9 (3.68) |
| 21 | EGDPLCYYYAN | GKNNRPS | SSLDSSGFQVF | n.d. n.d. n.d. | n.d. | 1/9 (3.87) |
| 22 | EGDSLAYYYAN | GKNNRPS | SSRDSYGFVVF | 4.02 5.35 2.71 | 4.03 | 3/9 (3.81) |
| 23 | CGDSLRYYFAN | GKNNRPS | SSRDSSGFQIF | 4.44 3.65 n.d. | 4.05 | 0/9 |
| 24 | EGDSLRYYYAN | GKNNRPS | SSRLSSGRQVM | 2.20 2.27 1.92 | 2.13 | 2/9 (3.68) |
| 25 | EGDSLFYYAAN | GKNHRPS | SSRDSSGFQVF | 2.99 2.60 2.37 | 2.65 | 3/9 (3.95) |
| 26 | EGDTLIYYYAN | GKNNRPS | SSRDSSGMQVF | 3.39 n.d. n.d. | 3.39 | 1/9 (4.14) |
| 27 | EMDSLRYYYGN | GKNNWPS | SSRDSSGFQVF | n.d. n.d. n.d. | n.d. | 1/9 (3.48) |
| 28 | EFDMLRYYYAN | GKDNRPS | SSRDSSGFQVF | 1.62 1.58 1.33 | 1.51 | 5/9 (4.27) |
| 29 | EGDSLRYYELN | GKNNRPS | SSRDSSGFQVF | 2.87 2.46 2.54 | 2.63 | 1/9 (4.59) |
| 30 | EGDGWYYYYAN | GKNNRPS | SSRDSSGFQVF | n.d. n.d. n.d. | n.d. | 0/9 |
| 31 | EGDSIRYYYID | GKNNRPS | SSRDSSGFQVF | 5.20 n.d. n.d. | 5.20 | 2/9 (3.86) |
| 32 | EGDSLRYYYAN | GKNNRPS | SSRDSIYFQVA | n.d. n.d. n.d. | n.d. | 2/9 (4.94) |
| 33 | EADSLRYYYAN | GKNNRPS | SDNDSSGFQVF | 4.14 3.23 3.84 | 3.74 | 2/9 (3.29) |
| 34 | EWDSQRYYYAN | GKNNRPS | QSRDSSGFQVF | 4.53 3.40 3.29 | 3.74 | 4/9 (3.68) |
| 35 | EGDSLRYYKAN | GKNSRPS | SSRDSKGFQVF | n.d. n.d. n.d. | n.d. | 1/9 (4.26) |
| 36 | EGDSLRKYYAN | GKNNRPS | SSRDSSGFQVF | 2.39 2.58 2.10 | 2.36 | 4/9 (3.82) |
| 37 | EGYSLRYYYAN | GKNNDPS | SSSDSSGFQVF | n.d. 5.15 n.d. | 5.15 | 2/9 (4.18) |
| 38 | EGDSRRYYYAN | GKNNRPD | SSRDSSGFAVF | n.d. n.d. n.d. | n.d. | 2/9 (3.99) |
| 39 | EGDSDRYYYAN | GKNNRPS | SPRDSSGFQVF | 3.81 2.90 4.33 | 3.68 | 1/9 (4.50) |
| 40 | EGDSLRIYYAA | GKNNRPL | SSRDSSGFQVF | 4.72 4.81 n.d. | 4.77 | 0/9 |
| 41 | EGDSLRYYYAN | GKNNRPS | SSSDSSGFIVD | 4.10 4.42 n.d. | 4.26 | 4/9 (4.09) |
| 42 | EGDSLRYYYVN | GKNNRPS | WSRMSSGFQVF | 4.57 4.04 3.89 | 4.17 | 2/9 (3.74) |

3 of these entries, quoted again:

| CDR-L1 | CDR-L2 | CDR-L3 | log10 Kd (nM) by replicate | mean, log10 nM | empty controls |
|---|---|---|---|---|---|
| EGDSLRYYYAN | GKNNRPS | SSRDSIYFQVA | n.d. n.d. n.d. | n.d. | 2/9 (4.94) |
| EGDSLRDYYAN | GKNNFPN | SSRDSSGFQVF | n.d. 3.92 n.d. | 3.92 | 2/9 (3.91) |
| EGDSLRWYYPN | GKDNRPS | SSRDSSGFQVF | 3.92 3.96 2.86 | 3.58 | 1/9 (3.34) |

Values reported by Engelhart et al. 2022, doi:10.1038/s41597-022-01779-4 (FLAb copy).